Reference: PubChem BioAssay AID1654 (Sanford-Burnham Center for Chemical Genomics, 2009)
This is a selection; strong and weak results do not stand in their true shares. The source made the active and inactive calls. Cut-off read from the data, not from the text of the source: active = inhibition above about 50%; inactive = the rest.

Chains of the proteins cited; added tags and fusions are not shown. Lines headed by an entry give the natural chain unless they say otherwise; changes in a name come on top.
UniProt P51452: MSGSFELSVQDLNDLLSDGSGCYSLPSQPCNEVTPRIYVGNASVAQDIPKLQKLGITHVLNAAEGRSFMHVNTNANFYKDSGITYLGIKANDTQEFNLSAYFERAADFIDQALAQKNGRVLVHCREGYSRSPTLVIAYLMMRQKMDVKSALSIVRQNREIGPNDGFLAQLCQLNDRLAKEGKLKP

Target: Dual specificity protein phosphatase 3 (Homo sapiens) (UniProt P51452)
Assay: VHR1 phosphatase inhibitors, primary screen, biochemical, absorbance, uHTS (AID 1654)
Conditions: recombinant VHR phosphatase, pNPP absorbance; at 13.3 µM; stronger effect = higher value

Q: Which inhibition does the source give for `O=C(/C=C/c1ccccc1)OC1CN2CCC1CC2` (stereo unspecified) here?
A: The inhibition was inactive: 6.1%.

Q: How did the inhibition turn out when `O=P1(Nc2ncccn2)COc2ccccc2OC1` was run?
A: The inhibition was inactive: 25.5%.

Q: With `Nc1cccc([As](=O)(O)c2ccccc2)c1` as the molecule, how does the inhibition read?
A: The inhibition was inactive: 8.7%.

Q: For `O=P1(Nc2ccc(Br)cn2)COc2ccccc2OC1`, which inhibition is on record?
A: Its inhibition is inactive: -0.8%.

Q: With `O=[As](O)(c1cccs1)c1cccs1` as the molecule, how does the inhibition read?
A: The inhibition was inactive: -3.9%.

Q: Which inhibition does the source give for `Cc1ccc(OCC(=O)OC2CN3CCC2CC3)cc1` (stereo unspecified) here?
A: Its inhibition is inactive: -9%.

Q: For `CCOP(=O)(NC(=NC(C)c1ccccc1)NC(C)c1ccccc1)OCC` (stereo unspecified), which inhibition is on record?
A: The inhibition was inactive: 18.1%.

Q: For `O=P1(Nc2ccccn2)COc2ccccc2OC1`, which inhibition is on record?
A: The inhibition was inactive: 2.9%.

Q: For `CCC1=CC2Cc3nc4ccc(Cl)cc4c(N)c3C(C1)C2` (stereo unspecified), which inhibition is on record?
A: Its inhibition is inactive: 8.1%.

Q: For `CCOP(=O)(Nc1ccc(C)cn1)OCC`, which inhibition is on record?
A: The inhibition was inactive: 27.1%.

Q: Which inhibition does the source give for `CC(C)(C)C(=O)NC(Sc1ncccn1)C(Cl)(Cl)Cl` (stereo unspecified) here?
A: Its inhibition is inactive: 13.3%.

Q: With `Clc1n[nH]nc1-c1nn[nH][15n]1` as the molecule, how does the inhibition read?
A: Its inhibition is inactive: 29.1%.

Q: For `CC(C)/C=N\N=C(\N)N[N+](=O)[O-]`, which inhibition is on record?
A: The inhibition was inactive: 15.2%.

Q: For `CN(C(=O)Cc1ccc(Cl)c(Cl)c1)[C@@H]1CCCC[C@H]1N1CCCC1`, which inhibition is on record?
A: Its inhibition is inactive: 30.1%.

Q: `O=[As](O)(c1ccccc1Br)c1ccccc1Br` was tested. Which inhibition did it give?
A: Its inhibition is inactive: 5.9%.

Q: For `O=C(OC1CN2CCC1CC2)c1ccc(Cl)cc1` (stereo unspecified), which inhibition is on record?
A: Its inhibition is inactive: -10.7%.

Q: How did the inhibition turn out when `CS(=O)(=O)c1ccc(Cl)c(NC(=O)COC(=O)C(O)(c2ccccc2)c2ccccc2)c1` was run?
A: The inhibition was inactive: 18.8%.

Q: With `COc1cc(C(=O)NCC2(N3CCOCC3)CCCCC2)cc(Cl)c1OC(C)C` as the molecule, how does the inhibition read?
A: Its inhibition is inactive: 6%.

Q: Which inhibition does the source give for `O=[As](O)(O)c1cccnc1` here?
A: The inhibition was inactive: 12.5%.

Q: With `O=[As](O)(c1cccc(O)c1)c1cccc(O)c1` as the molecule, how does the inhibition read?
A: The inhibition was inactive: 5.1%.

Q: `Cc1cccc(OCC(=O)OC2CN3CCC2CC3)c1` (stereo unspecified) was tested. Which inhibition did it give?
A: Its inhibition is inactive: -9.6%.

Q: Which inhibition does the source give for `Nc1cccc2c([As](=O)(O)O)cccc12` here?
A: The inhibition was inactive: 78.4%.

Q: Which inhibition does the source give for `Cc1ccc(NCCc2c([N+](=O)[O-])cc([N+](=O)[O-])cc2[N+](=O)[O-])cc1` here?
A: Its inhibition is inactive: 20.8%.

Q: `CCCOP(=S)(Nc1nc(N)cc(=O)[nH]1)OCCC` was tested. Which inhibition did it give?
A: The inhibition was inactive: 11.2%.

Q: With `CCOP(=O)(Nc1cccc2ccccc12)OCC` as the molecule, how does the inhibition read?
A: The inhibition was inactive: -11.3%.

Q: How did the inhibition turn out when `COc1cc(C2NCCC3(OCCO3)C2(C)C)cc(OC)c1OC` (stereo unspecified) was run?
A: Its inhibition is inactive: -9.9%.

Q: How did the inhibition turn out when `O=P(Nc1nccs1)(c1ccccc1)c1nc2ccccc2s1` (stereo unspecified) was run?
A: Its inhibition is inactive: 8.3%.

Q: Which inhibition does the source give for `O=P(Nc1nccs1)(Oc1ccccc1)Oc1ccccc1` here?
A: The inhibition was inactive: 12%.

Q: `CCOP1(=S)c2c(C)nn(CCC#N)c2N=C(c2ccccc2F)N1C` (stereo unspecified) was tested. Which inhibition did it give?
A: Its inhibition is inactive: 16.9%.

Q: How did the inhibition turn out when `CS(=O)(=O)c1cc([N+](=O)[O-])c2no[n+]([O-])c2c1` was run?
A: Its inhibition is inactive: 1.2%.

Q: How did the inhibition turn out when `Nc1ccccc1[As](=O)(O)c1ccccc1` was run?
A: The inhibition was inactive: 12.5%.

Q: How did the inhibition turn out when `O=C(O)COc1ccc([As](=O)(O)O)cc1[N+](=O)[O-]` was run?
A: The inhibition was inactive: 13.1%.

Q: How did the inhibition turn out when `NC(=O)Nc1ccc([As](=O)(O)O)cc1` was run?
A: Its inhibition is inactive: 14.9%.

Q: Which inhibition does the source give for `CCOP1(=S)c2c(C)nn(CCC#N)c2N=C(c2ccc(F)cc2)N1C` (stereo unspecified) here?
A: Its inhibition is inactive: 7.2%.

Q: Which inhibition does the source give for `CN(C(=O)Cc1ccccc1)[C@@H]1CC[C@]2(CCCO2)C[C@H]1N1CCCC1` here?
A: Its inhibition is inactive: -8.9%.

Q: With `O=[N+]([O-])c1ccc2c(c1)nnn2O` as the molecule, how does the inhibition read?
A: Its inhibition is inactive: 35.1%.
